# Measured values from PubChem BioAssay AID624093 (National Center for Advancing Translational Sciences (NCATS), 2012).
# The list shows a part of the results, in another mix than the full data. Results filed as inconclusive are left out. Calls of active or inactive are those of the source. Calls follow the shape of the dose curve; as a rule, active = well fitted inhibition curve with a large enough effect; inconclusive = small, poorly fitted or top-dose-only effect; inactive = flat fitted curve, though single readings scatter.
# Target: Dual specificity tyrosine-phosphorylation-regulated kinase 1A (Homo sapiens) (UniProt Q13627)
# Experiment: Confirmation Assay for Inhibitors of Dyrk1a (Kinase-Glo Assay): KU probe
# Conditions: Kinase-Glo ATP luminescence
# Source text: NIH Molecular Libraries Probe Production Centers Network [MLPCN] NIH Chemical Genomics Center [NCGC] MLSCN Grant: 1R03MH084827-01 PI Name: Tom Misteli NCGC Assay Overview: The CMGC group of protein kinases which includes CDK-like kinases (Clk) and Dyks are essential kinases found in all eukaryotes. Clks have been implicated to play a role in the regulation of alternative splicing; while Dyrks, in particular over expression of Dyrk1A, has been linked to diseases as Down syndrome (DS; OMIM 190685) and Alzheimer disease (AD; OMIM 104300). Among the members of the CMGC group, the Clks and the Dyrks are very closely related therefore to determine validity and selectivity of an active compound observed in the CLK4 qHTS screen (AID:1770), a bioluminescent counter-screen against Dyrk1A was developed. […]
# NCGC Assay Protocol Summary: Two uL/well of substrate solution (8uM Dyrktide, 2uM ATP, 25mM Tris-HCl pH 7.5, 10mM MgCl2 , 0.5mM EGTA, 5mM cystein, 0.01% Triton X-100 final concentration) was dispensed into 1536-well assay plates (Greiner, solid white, medium-binding plates) with Aurora Discovery BioRAPTR Flying Reagent Dispenser (FRD, Beckton-Dickenson). […] The plates were spun for 30 seconds (1000 rpm) and incubated at ambient temperature for 2 minutes followed by a luminescence read using Perkin Elmer ViewLux plate reader at 3 seconds exposure time and 2x binning.
smiles,measurement,value
CCN1/C(=C/C(C)=O)Sc2ccc(OC)cc21,Potency,active: 368 nM
